Measured values as given in US11166931B2, “Induction of arteriogenesis with an NO (nitric oxide) donor” (G. Pohl-Boskamp GmbH & Co. KG, priority 2012, dated 2021).

Test system: Sprague-Dawley rats
Test: Collateral diameters in the ROI, coronary microvascular imaging with micro-CT
Settings: rat, in vivo

**Q.** For `O=[N+]([O-])OCC(CO[N+](=O)[O-])O[N+](=O)[O-]` [NTG, nitroglycerin], which “collateral diameters / collateral growth compared to controls (in words)” value is on record?
**A.** significantly enlarged collateral arteries
